Experimental data as given in US9868705B2, “Tetra-aryl cyclobutane inhibitors of androgen receptor action for the treatment of hormone refractory cancer” (The Board of Trustees of the University of Illinois, priority 2013, dated 2018).

Sequences of proteins named here, by UniProt entry; tags and fusion partners are left off.
UniProt P10275, whole entry T878A: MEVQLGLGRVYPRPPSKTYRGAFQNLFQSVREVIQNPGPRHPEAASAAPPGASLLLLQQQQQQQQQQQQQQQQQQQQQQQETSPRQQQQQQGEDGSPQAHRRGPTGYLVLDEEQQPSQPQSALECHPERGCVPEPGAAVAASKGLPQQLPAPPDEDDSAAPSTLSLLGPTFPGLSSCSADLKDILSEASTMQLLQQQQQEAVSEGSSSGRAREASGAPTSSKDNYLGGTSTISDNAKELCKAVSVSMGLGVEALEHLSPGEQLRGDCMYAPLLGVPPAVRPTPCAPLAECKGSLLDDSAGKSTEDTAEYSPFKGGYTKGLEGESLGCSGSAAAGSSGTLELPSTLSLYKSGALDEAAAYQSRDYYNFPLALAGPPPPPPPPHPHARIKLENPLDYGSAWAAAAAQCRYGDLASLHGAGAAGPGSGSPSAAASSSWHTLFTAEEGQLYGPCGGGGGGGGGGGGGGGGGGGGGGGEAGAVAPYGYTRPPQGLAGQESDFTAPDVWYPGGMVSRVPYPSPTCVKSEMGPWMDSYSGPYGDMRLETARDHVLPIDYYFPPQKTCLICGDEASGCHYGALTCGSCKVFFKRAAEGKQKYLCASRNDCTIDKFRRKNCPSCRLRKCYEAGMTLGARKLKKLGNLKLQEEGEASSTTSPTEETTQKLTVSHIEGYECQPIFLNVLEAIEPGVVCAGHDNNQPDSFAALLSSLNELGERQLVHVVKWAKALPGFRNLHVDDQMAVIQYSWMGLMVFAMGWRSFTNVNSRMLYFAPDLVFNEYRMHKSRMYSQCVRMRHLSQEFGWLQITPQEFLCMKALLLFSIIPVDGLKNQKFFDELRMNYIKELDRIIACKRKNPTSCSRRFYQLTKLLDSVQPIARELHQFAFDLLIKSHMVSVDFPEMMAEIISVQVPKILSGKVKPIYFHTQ

Molecular target: T877A (LNCaP) AR (Homo sapiens, UniProt P10275, T878A)
Experiment: MMTV-luciferase transcription assay in CV-1 cells, T877A AR
Assay type: cell-based
Settings: MMTV transcription assay in CV-1 cells, compared with 1

COc1nc(C)cc(C2C(c3ccccc3)C(c3cc(C)nc(OC)n3)C2c2ccccc2)n1 (single isomer, unassigned)
AR antagonism, potency in words (structure-activity discussion): comparable potency to 1
